This data set is classed as physicochemical. Here is the method:
Three twin-hydrophobic dendrons containing branched alkyl groups in their hydrophobic part and alkyne (11d) or azide (14d,e,f) groups were combined with the carbohydrates 23 and 27 containing azide groups, with the carbohydrates 41a and 43a containing the alkyne directly attached, and with 41d that has the alkyne attached to the carbohydrate via a tri(ethylene)glycol spacer. This provided eleven Janus glycodendrimers (Scheme 6). All these Janus glycodendrimers are soluble in THF (10 mg/mL to 40 mg/mL) and after injection produced concentrations in water from 0.5 mg/mL up to 2 mg/mL. The injection in water of their THF solutions generated assemblies with polydispersity ranging from 0.03 to 0.20. […] The analysis of the structure of cubosomes will be presented in a later section. […] Compounds with branched alkyl chains in the hydrophobic side and a long tri(ethylene)glycol spacer in the hydrophilic side (FIG. 3b, c, d) induce the formation of high-quality glycodendrimersomes. […] The extension of the thick wall is about three times larger than that of the regular thin wall which is about the thickness of two Janus dendrimer length (˜7 nm). […]

With “(3,4)12G1-PE-TRZ-(mannose)2 [Compound 46ab]”, the “solubility in THF” value is listed as “limited solubility in THF”.
The result for “((3,4)12G-PE-TRZ-(galactose)2 [Compound 46aa]” reads “limited solubility in THF”.

Source of the values: US9777034B2, “Modular synthesis of amphiphilic Janus glycodendrimers and their self-assembly into glycodendrimersomes” (The Trustees of The University of Pennsylvania, priority 2013, dated 2017).
